# Results from US20060036086A1, “Use of signal transduction inhibitors and combination therapies for the prevention or treatment of cancer and angiogenesis related diseases” (priority 2002, published 2006).
# Experiments:
# MDA-MB-361HK tumor = MDA-MB-361HK tumor in SCID mouse cranial window, intravital fluorescence microscopy (vessels, permeability, tumor size, survival); type: in vivo, SCID mice
# Experimental: The ability of Herceptin treatment to induce normalization and regression of the vasculature of a HER2 over-expressing human breast carcinoma was tested in vivo. For better in vivo growth of tumors for this analysis, the MDA-MB-361HK cell line (Genentech Inc., San Francisco, Calif.) was derived from MDA-MB-361, a HER2 over-expressing human breast cancer cell line derived from a brain metastasis. MDA-MB-361HK tumor xenografts were established by injection of a single-cell suspension into the dorsal flank of female SCID mice supplemented with an estrogen pellet (17-β-estradiol 0.36 mg, Innovative Research, Sarasota, Fla.) inserted subcutaneously a few days before cell injection. Tumors were serially transplanted up to four generations. Cranial windows were prepared in 8-10 week old female SCID mice as previously described (Jain et al., in Tumor Models In Cancer Research, ed. Teicher, Humana Press Inc., Totowa, N.J., pp. 647-671, 2001). These mice were bred and maintained in our gnotobiotic animal facility. A few days after estrogen supplementation, a piece of MDA-MB-361HK tumor, approximately 1 mm in diameter, was implanted into the cranial windows. Approximately 14 days after tumor implantation, when the tumor became well vascularized (approximately 2 mm in diameter; referred to as treatment day 0), we began treating the animals with intraperitoneal injection of either Herceptin or control human IgG (Genentech), 30 mg/kg, every 3 days. Treatment continued until the tumor diameter reached approximately 6 mm, the size of the window. Then, the mouse was sacrificed, and the tumor was resected for histological and molecular analyses. Animal survival was derived from the time interval between the initiation of treatment and animal sacrifice. Tumor size, vessel density, mean vessel diameter, and vessel volume of the cranial window tumor were analyzed every 3 days from treatment day 0 using intravital fluorescence microscopy and quantified as previously described (Jain et al., supra). For visualization of blood vessels, 10 mg/ml fluorescein isothiocyanate labelled dextran solution (Mr, 2,000,000; Sigma Chemical Co., St. Louis, Mo.) was injected via a tail vein cannula. Vascular permeability to albumin was measured on treatment day 0, day 15, and the day the tumor reached 6 mm, as previously described (Jain et al., supra). Mice were injected with a bolus (100 μl) of 1% tetramethylrhodamine labelled bovine serum albumin (Molecular Probes, Eugene, Oreg.) in saline via the tail vein.
# MDA-MB-361HK cells = experiment: Expression of angiogenesis related genes in MDA-MB-361HK cells in vitro (Northern blot); type: cell-based, human; conditions: 50 μg/ml for 72 hours
# Source text: Based on the finding that the vascular effect of Herceptin was very stable throughout the course of the study, together with the known diversity of human epidermal growth factor receptor pathways (Yarden et al., Nat. Rev. Mol. Cell Biol. 2:127-137, 2001), we hypothesized that Herceptin treatment affects multiple pro- and anti-angiogenic factors. To test this hypothesis, we examined 23 angiogenesis related genes using the Human Cancer/angiogenesis-2 GEArray kit (SuperArray Inc., Bethesda, Md.) according to manufacturer's instructions. For this analysis, the gene expression of tumors in vivo and in vitro was measured in the presence and absence of Herceptin. In particular, tumors were removed from Herceptin and control antibody treated mice once the tumors reached 6 mm in size. The tumor tissue was then homogenized, and the cells were lysed. To collect mRNA, the lysate was applied to a spin column containing an oligo-T matrix to bind the polyA termini of the mRNA. The mRNA was then eluted from the matrix, and the mRNA was reversed transcribed in the presence of [^32P]-dCTP to generate radiolabelled cDNA. A 1 μg sample of cDNA was hybridized to the chip overnight, and then the radioactive cDNA bound to the chip was detected. To study the effect of Herceptin on tumor cells in vitro, MDA-MB-361HK cells were plated at a density of 2×10^6 cells/10 cm dish overnight. […]
# [1] = test system: angiogenesis related genes; experiment: Expression of angiogenesis related genes in tumors in vivo (Human Cancer/angiogenesis-2 GEArray kit, Northern blot); set-up: species or system SCID mice
# Source text: Based on the finding that the vascular effect of Herceptin was very stable throughout the course of the study, together with the known diversity of human epidermal growth factor receptor pathways (Yarden et al., Nat. Rev. Mol. Cell Biol. 2:127-137, 2001), we hypothesized that Herceptin treatment affects multiple pro- and anti-angiogenic factors. To test this hypothesis, we examined 23 angiogenesis related genes using the Human Cancer/angiogenesis-2 GEArray kit (SuperArray Inc., Bethesda, Md.) according to manufacturer's instructions. For this analysis, the gene expression of tumors in vivo and in vitro was measured in the presence and absence of Herceptin. In particular, tumors were removed from Herceptin and control antibody treated mice once the tumors reached 6 mm in size. The tumor tissue was then homogenized, and the cells were lysed. To collect mRNA, the lysate was applied to a spin column containing an oligo-T matrix to bind the polyA termini of the mRNA. The mRNA was then eluted from the matrix, and the mRNA was reversed transcribed in the presence of [^32P]-dCTP to generate radiolabelled cDNA. A 1 μg sample of cDNA was hybridized to the chip overnight, and then the radioactive cDNA bound to the chip was detected. To study the effect of Herceptin on tumor cells in vitro, MDA-MB-361HK cells were plated at a density of 2×10^6 cells/10 cm dish overnight. The cells were treated with 50 μg/ml Herceptin or control human IgG for 72 hours, and the cell lysate was collected for Northern blot analysis and for DNA chip analysis, as described above.
# [2] = 30 mg/kg intraperitoneal every 3 days
# [3] = when the tumor reached 6 mm size
# [4] = GEArray expression profiling, treated tumors vs control tumors in vivo, tumors 6 mm
substance,measurement,setting,value
Herceptin: monoclonal antibody against human epidermal growth factor receptor 2 (HER2),Length of tumor vessels compared to control antibody treatment,MDA-MB-361HK tumor; [2],not significantly affecting
same,Volume of tumor vessels compared to control antibody treatment,MDA-MB-361HK tumor; [2],significantly reduced
same,Vascular permeability compared to control antibody treatment,"MDA-MB-361HK tumor; day 15, 30 mg/kg intraperitoneal every 3 days",significantly reduced
same,Vascular permeability,"MDA-MB-361HK tumor; day 15, permeability to albumin, 30 mg/kg intraperitoneal every 3 days",1.6±1.1 ×10^−7 cm s^−1
same,Animal survival compared to control antibody treatment,MDA-MB-361HK tumor; time from initiation of treatment to sacrifice (tumor approximately 6 mm),significantly increased; also recorded: significantly extended
same,Mean vessel diameter of tumor vessels compared to control antibody treatment,"MDA-MB-361HK tumor; up to treatment day 15, 30 mg/kg intraperitoneal every 3 days",significantly reduced
same,Tumor size / tumor growth compared to control antibody treatment,"MDA-MB-361HK tumor; up to treatment day 15, 30 mg/kg intraperitoneal every 3 days, 30 mg/kg",significantly reduced; also recorded: delayed
same,Mean vessel diameter compared to control antibody treatment,MDA-MB-361HK tumor; [3],significantly reduced
same,Vascular permeability compared to control antibody treatment,MDA-MB-361HK tumor; [3],significantly reduced
same,Vessel length compared to control antibody treatment,MDA-MB-361HK tumor; [3],not significantly different
same,Vessel volume compared to control antibody treatment,MDA-MB-361HK tumor; [3],significantly reduced
same,"VEGF expression, Northern blot analysis",MDA-MB-361HK cells,decreased
same,Expression of angiopoietin-1 (Ang-1),[1]; [4],decreased
same,Expression of plasminogen activator inhibitor-1 (PAI-1),[1]; [4],decreased
same,Expression of thrombospondin-1 (TSP-1),[1]; [4],increased
same,Expression of transforming growth factor alpha (TGF-α),[1]; [4],decreased
same,Expression of vascular endothelial growth factor (VEGF),[1]; [4],decreased
same,"VEGF expression, Northern blot analysis",[1]; in vivo tumors,not in vivo
same,"Herceptin mediated change in PAI-1 expression, in vivo compared to in vitro",[1]; in vivo tumors vs cultured cells,greater in vivo compared to in vitro

# Entries after “also recorded” stand apart in the source; their conditions may differ.
